From PubChem BioAssay
Hits are enriched below; roughly 1.5% of the tested compounds scored in any of these assays.
Yeast UUG start – modulators of yeast start codon fidelity, primary screen, whole organism, S. cerevisiae, single point, plate reader; S. cerevisiae UUG-firefly luciferase reporter, luminescence/redox ratio; activity score, % at 18.7 µM; actives 0.13% (n = 350,000); AID 602363, 2012;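 active = replicate mean at a twofold rise or more, about +100% in these data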;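 also: firefly luciferase made from a UUG start codon reports start codon fidelity; reporter light over untreated wells divided by growth signal over untreated wells; some hits fall short of that in this replicate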
CASP6 VEID inh – blocks human caspase-6 cleavage activity | P55212 | purified caspase-6, Z-VEID-R110 cleavage fluorescence | inhibition, % at 12.5 µM | 350,000 compounds, 0.53% hits | AID 686996;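 active = mean inhibition across replicates at least about 35%, with every replicate also reaching that limit, limit read from the data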;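 note: 0% = median of neutral control wells and 100% = no fluorescence left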
PglD DTNB – blocks C. jejuni PglD acetyltransferase activity; purified PglD enzyme, DTNB colorimetric CoA detection; inhibition, % at 12.5 µM; 360,000 compounds, 0.098% hits; in the data active = inhibition above about 16%, passing the limit was not always enough
RAD54 inh – inhibitors of human RAD54 branch migration; Q92698; RAD54 Holliday junction branch migration, FAM/BHQ fluorescence; inhibition, % at 10.4 µM; 360,000 compounds, 0.14% hits; AID 602329;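 active = mean normalized replicate activity at least 40 and at least half of replicates scoring 40 or more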;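 note: 0% = median of neutral control wells and 100% = median of positive control wells; inhibitors cause a drop in the FAM fluorescence signal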
GSIS activator – primary screen for activators of insulin secretion dependent on glucose, INS-1E cells, GLuc reporter luminescence. AID 743287. INS-1E GLuc reporter insulin secretion, 2-3 h. activation, % at 16.6 µM. 370,000 compounds, 0.61% hits;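 active = lowest replicate activation of at least 40%, so every replicate reaches that level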;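 note: 0% = median of neutral control wells and 100% = median of IBMX positive control wells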
RAD52 inh – inhibitors of human RAD52 DNA annealing; recombinant RAD52 DNA annealing, FRET fluorescence; inhibition, % at 18.7 µM; 360,000 compounds, 0.46% hits; AID 651710;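 active = every replicate showing at least 50% inhibition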
* marks the source's active call; other numbers are inactive results.

`O=C1c2ccccc2NC(c2ccc(O)c(O)c2)N1c1ccccc1Cl` (configuration not stated) gave Yeast UUG start -7, CASP6 VEID inh 2, PglD DTNB -10, RAD54 inh -17, GSIS activator -6 and RAD52 inh -7.
`COc1ccc(C(=O)NNC2=NS(=O)(=O)c3ccccc32)cc1OC` gave Yeast UUG start -6, PglD DTNB 5, RAD54 inh 0, GSIS activator -5 and RAD52 inh -11.
For Cc1cc(CCNC=O)c(C)c2c1oc1ccccc12 the results were CASP6 VEID inh 1, GSIS activator 57* and RAD52 inh -9.
Screening Cc1ccccc1-c1cc(=O)c2ccccc2o1 returned Yeast UUG start -8, CASP6 VEID inh -5, PglD DTNB -3, RAD54 inh 11, GSIS activator 16 and RAD52 inh -20.
For CN(c1ncnc(N)c1[N+](=O)[O-])C1CCCCC1 the results were Yeast UUG start -21, CASP6 VEID inh -2, PglD DTNB 4, RAD54 inh 0, GSIS activator 41* and RAD52 inh -10.
Screening COc1ccc(NC(=O)C2CCN(S(=O)(=O)c3ccc4c(c3)CC(C)N4C(C)=O)CC2)cc1OC (configuration not stated) returned Yeast UUG start -8, CASP6 VEID inh 0, PglD DTNB -1, RAD54 inh 7, GSIS activator 26 and RAD52 inh -6.
`COc1ccc(NC(=O)C2CCCN2S(=O)(=O)c2ccc3c(c2)CC(C)N3C(C)=O)cc1OC` (configuration not stated) gave Yeast UUG start 7, CASP6 VEID inh 5, PglD DTNB 1, RAD54 inh 3, GSIS activator 101* and RAD52 inh -5.
Screening CCCN1CCC2(CC1)CN(Cc1ccc3c(c1)OCO3)[C@H](CO)c1[nH]c3cc(OC)ccc3c12 returned CASP6 VEID inh -2, GSIS activator -19 and RAD52 inh 87*.
`COc1ccc2c3c([nH]c2c1)[C@@H](CO)N(Cc1nccs1)CC31CCN(Cc2cncnc2)CC1` gave GSIS activator -10 and RAD52 inh 50*.
For COCC#Cc1ccc2c(c1)O[C@@H](CN(C)CC1CCCCC1)[C@@H](C)CN([C@@H](C)CO)S2(=O)=O the results were Yeast UUG start 7 and GSIS activator 7.
For CC(NC(=O)C=Cc1ccco1)C(=O)NC(Cc1ccccc1)C(N)=O (configuration not stated) the results were CASP6 VEID inh 46*, GSIS activator 8 and RAD52 inh -36.
`CC(C)NC(=O)N(C)C[C@H]1OCCCC[C@H](C)Oc2ccc(NS(=O)(=O)c3ccc(Cl)cc3)cc2C(=O)N([C@H](C)CO)C[C@@H]1C` gave Yeast UUG start 3, CASP6 VEID inh -1, PglD DTNB 4, RAD54 inh -8, GSIS activator -17 and RAD52 inh 16.
For COc1cc(NC(=S)N2CCN(Cc3ccccc3)CC2)cc(OC)c1 the results were GSIS activator -2.
`CCN(Cc1ccccc1)S(=O)(=O)c1ccc(C(=O)Nc2nnc(C)o2)cc1` gave Yeast UUG start -25, CASP6 VEID inh 0, PglD DTNB -2, RAD54 inh 14, GSIS activator 54* and RAD52 inh -6.
For CCc1nnc(NC(=O)c2ccc(S(=O)(=O)N(CC)Cc3ccccc3)cc2)o1 the results were Yeast UUG start -32, PglD DTNB 2 and RAD54 inh -20.
`O=C(NCC1CCCO1)c1ccc2c(c1)N(Cc1ccccc1)C(=O)CS2` (configuration not stated) gave Yeast UUG start -21, CASP6 VEID inh 1, PglD DTNB -2, RAD54 inh 13, GSIS activator 6 and RAD52 inh -8.
For Cc1cccc(CN2C(=O)CSc3ccc(C(=O)NC4CC4)cc32)c1 the results were Yeast UUG start -4, CASP6 VEID inh 0, PglD DTNB 1, RAD54 inh -2, GSIS activator 191* and RAD52 inh -14.
For O=c1c2ccccc2c(C=Nc2ccc(Cl)cn2)c(O)n1-c1cc(Cl)ccc1N1CCOCC1 the results were Yeast UUG start -1, PglD DTNB -4 and RAD54 inh -10.
COc1ccccc1NC(=O)c1ccccc1S(=O)(=O)c1ccc([N+](=O)[O-])cc1 was read as Yeast UUG start -7, CASP6 VEID inh 40*, PglD DTNB -1, RAD54 inh 7, GSIS activator 3 and RAD52 inh 6.
`CC(C)CCN1CCN(Cc2cccn2-c2ccccn2)CC1CCO` (configuration not stated) gave CASP6 VEID inh 2, GSIS activator -2 and RAD52 inh -17.

Fetched by compound from the entries so far:
COc1ccccc1NC(=O)c1ccccc1S(=O)(=O)c1ccc([N+](=O)[O-])cc1 was read as Yeast UUG start -7, CASP6 VEID inh 40*, PglD DTNB -1, RAD54 inh 7, GSIS activator 3 and RAD52 inh 6.
For CC(NC(=O)C=Cc1ccco1)C(=O)NC(Cc1ccccc1)C(N)=O (configuration not stated) the results were CASP6 VEID inh 46*, GSIS activator 8 and RAD52 inh -36.

Back to the main list, starting 2 compounds before the break.
COc1ccccc1NC(=O)c1ccccc1S(=O)(=O)c1ccc([N+](=O)[O-])cc1 was read as Yeast UUG start -7, CASP6 VEID inh 40*, PglD DTNB -1, RAD54 inh 7, GSIS activator 3 and RAD52 inh 6.
`CC(C)CCN1CCN(Cc2cccn2-c2ccccn2)CC1CCO` (configuration not stated) gave CASP6 VEID inh 2, GSIS activator -2 and RAD52 inh -17.
`C/C(=N\NC(=O)c1cc(O)ccc1O)c1cccc(NC(=O)c2cccc(Cl)c2)c1` gave Yeast UUG start -8, CASP6 VEID inh 39*, PglD DTNB 6, RAD54 inh -2, GSIS activator 9 and RAD52 inh -2.
`C/C(=N\NC(=O)c1ccccc1O)c1cccc(NC(=O)c2ccccc2)c1` gave Yeast UUG start -6, CASP6 VEID inh 5, PglD DTNB -3, RAD54 inh 6, GSIS activator 1 and RAD52 inh -26.
Screening C/C(=N\NC(=O)c1cc(O)ccc1O)c1cccc(NC(=O)c2ccc(Cl)cc2)c1 returned Yeast UUG start -21, CASP6 VEID inh 53*, PglD DTNB -1, RAD54 inh 3, GSIS activator 3 and RAD52 inh -6.
Screening CC(C)Sc1nc2c(c(=O)[nH]c(=O)n2C)n1Cc1ccc(Cl)cc1 returned Yeast UUG start 0, PglD DTNB -2, RAD54 inh -13 and GSIS activator 77*.
Screening Cn1c(=O)[nH]c(=O)c2c1nc(SCC(O)CCl)n2Cc1ccccc1 (configuration not stated) returned Yeast UUG start -8, CASP6 VEID inh 0, PglD DTNB 2, RAD54 inh -2, GSIS activator 41* and RAD52 inh -4.
`CC(=O)CSc1nc2c(c(=O)[nH]c(=O)n2C)n1Cc1ccccc1Cl` gave Yeast UUG start -12, CASP6 VEID inh 1, PglD DTNB 1, RAD54 inh 3, GSIS activator 59* and RAD52 inh -7.
Screening Cc1cccc(NC(=O)CSc2nnc3ccc(-c4ccccn4)nn23)c1 returned CASP6 VEID inh 1, GSIS activator 20 and RAD52 inh -11.
`O=C(NCc1ccccc1)C(c1ccccc1F)n1c(=O)c(-c2ccccc2)nc2ccccc21` (configuration not stated) gave CASP6 VEID inh -3, GSIS activator -1 and RAD52 inh 1.
Screening O=C(NCc1ccccc1)C(c1ccncc1)n1c(=O)c(-c2ccccc2)nc2ccccc21 (configuration not stated) returned CASP6 VEID inh 0, GSIS activator 45* and RAD52 inh 0.
